{
  "source": "PubChem BioAssay AID435030",
  "about": "(The Scripps Research Institute Molecular Screening Center, 2010)",
  "note": "The entries are a selection whose mix differs from that of the whole data set. Calls of active or inactive are those of the source. Rule as the data show it: active = inhibition above about 12%; inactive = the rest.",
  "data": [
    {"experiment": "reduced growth of AddAB-expressing E. coli cells – absorbance, AddAB inhibitor project, primary screen (AID 435030);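 also: 0% = vehicle wells of infected cells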", "conditions": "E. coli expressing H. pylori AddAB, at 11.9 µM, active compounds read high", "values": [
      {"smiles": "COc1ccc(C[C@H](C)NC[C@@H](O)c2ccc(O)c(NC=O)c2)cc1", "inhibition": "active: 45.7%"}
    ]}
  ]
}
